Assay results as given in patent US11549124B2 (priority 2017, dated 2023).

By UniProt entry, the sequences of proteins in these tests, tags left out. Residues count along the entry.
UniProt P34752, 24-467: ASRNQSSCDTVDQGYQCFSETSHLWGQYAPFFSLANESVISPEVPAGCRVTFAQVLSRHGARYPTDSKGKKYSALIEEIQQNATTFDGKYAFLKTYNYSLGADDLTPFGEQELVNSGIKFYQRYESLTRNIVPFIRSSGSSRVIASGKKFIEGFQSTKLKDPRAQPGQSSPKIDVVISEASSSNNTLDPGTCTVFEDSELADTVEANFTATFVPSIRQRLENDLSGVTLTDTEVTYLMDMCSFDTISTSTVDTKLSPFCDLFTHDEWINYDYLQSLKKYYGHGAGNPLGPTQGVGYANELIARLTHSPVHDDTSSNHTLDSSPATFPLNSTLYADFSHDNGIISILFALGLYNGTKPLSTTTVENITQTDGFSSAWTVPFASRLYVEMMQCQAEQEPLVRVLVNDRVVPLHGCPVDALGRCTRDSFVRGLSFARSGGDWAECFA

Target: A. ficuum phytase (EC 3.1.3.8) (Aspergillus niger, UniProt P34752)
Settings: phytase: protease ratio of 1:20

## pepsin
  phytase activity after exposure to protease: unaffected
